The assay addresses native H3 receptors from rat cerebral cortices (Rattus norvegicus (Rat), UniProt Q9QYN8). Put plainly: H3 receptor competition binding with [3H]-N-α-methylhistamine, rat cerebral cortex membranes. To be noted: [3H]-N-α-methylhistamine competition binding.

By UniProt entry, the sequences of proteins in these tests, tags left out. Where a name states a change or a piece, a line headed by the entry shows the natural chain unless it says otherwise.
UniProt Q9QYN8: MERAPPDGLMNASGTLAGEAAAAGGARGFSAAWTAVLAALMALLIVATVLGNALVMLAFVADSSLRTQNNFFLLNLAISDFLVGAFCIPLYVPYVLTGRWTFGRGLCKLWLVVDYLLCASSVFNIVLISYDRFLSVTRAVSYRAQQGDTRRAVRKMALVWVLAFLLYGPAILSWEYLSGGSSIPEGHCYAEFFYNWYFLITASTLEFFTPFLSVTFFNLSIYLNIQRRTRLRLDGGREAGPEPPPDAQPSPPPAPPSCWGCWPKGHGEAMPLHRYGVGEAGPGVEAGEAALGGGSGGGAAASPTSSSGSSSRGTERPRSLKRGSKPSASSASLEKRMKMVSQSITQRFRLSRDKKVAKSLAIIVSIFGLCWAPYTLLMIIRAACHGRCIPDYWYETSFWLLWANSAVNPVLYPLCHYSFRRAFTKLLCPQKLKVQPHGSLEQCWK

Molecules are shown by their SMILES.

`CC1=C(c2ccc(OCCCN3CCC[C@H]3CO)cc2)SC2=NCc3ccccc3CN21` [Example 1, ((2S)-1-{3-[4-(3-methyl-5,10-dihydro[1,3]thiazolo[3,2-b][2,4]benzodiazepin-2-yl)phenoxy]propyl}pyrrolidin-2-yl)methanol] returned an inhibitory constant (Ki) of 0.032 nM.

As usually defined, the Ki is the equilibrium dissociation constant of an inhibitor or competing ligand from its target.
